Earlier results on 1 compound are cited in patent US20150119272A1, “DOSE-RESPONSE MEDICAL OUTCOME MODEL PREDICTOR SYSTEM AND METHOD” (ROYAL COLLEGE OF SURGEONS IN IRELAND, priority 2012, published 2015).

Protein sequences, listed by entry. Tags and fused reporters are not part of them.
UniProt Q07820, whole entry, species assumed: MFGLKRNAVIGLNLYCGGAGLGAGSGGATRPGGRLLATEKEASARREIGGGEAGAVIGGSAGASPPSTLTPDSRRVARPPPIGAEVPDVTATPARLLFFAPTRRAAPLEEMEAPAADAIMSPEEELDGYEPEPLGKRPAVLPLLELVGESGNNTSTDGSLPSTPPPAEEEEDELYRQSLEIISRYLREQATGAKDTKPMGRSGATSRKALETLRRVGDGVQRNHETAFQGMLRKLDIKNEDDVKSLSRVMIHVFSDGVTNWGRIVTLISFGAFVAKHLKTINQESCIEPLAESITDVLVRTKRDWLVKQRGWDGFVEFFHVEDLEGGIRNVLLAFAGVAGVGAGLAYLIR

Structures are written as SMILES.

The target in the data set is Mcl-1 (Homo sapiens, UniProt Q07820). The conditions noted are these: binding to Mcl-1; taken from literature (Lessene et al. 2008).

Turning to `CN(C)CC[C@H](CSc1ccccc1)Nc1ccc(S(=O)(=O)NC(=O)c2ccc(N3CCN(Cc4ccccc4-c4ccc(Cl)cc4)CC3)cc2)cc1[N+](=O)[O-]` [ABT-737], the Kd (as a rule, a measure of binding affinity in units of concentration) is 1000 nM.
